Results reported in patent US20220220491A1.

Assays:
AOX1 promoter [1] = assay: extracellular recombinant prepromelittin protein production; details: SNP as inducer at 200, 400, 600 and 800 nanomoles; sorbitol as carbon source; recombinant P. pastoris cells
Source text: In a study conducted under scope of the invention, to produce recombinant protein, recombinant P. pastoris cells (constructed in our laboratory) carrying “prepromelittin protein” gene of Apis mellifera (honey bee) in its genome and producing extracellularly this protein were used.

AOX1 promoter [2] = assay: heterologous gene expression analysis (FIG. 1); details: 800 nM sodium nitroprusside, comparison: methanol 0.5%
Method: FIG. 1 is efficiency analysis graphic of heterologous gene expression levels giving comparison of method of invention to control groups of different applications.
A. Growth culture containing methanol in 0.5% in volume
C. Growth culture containing glucose in 1% and 800 nM sodium nitroprusside
E. Growth culture containing glycerol in 1% and 800 nM sodium nitroprusside
G. Growth culture containing sorbitol in 1% and 800 nM sodium nitropusside
The most importantly, with use of SNP, much higher protein production can be achieved in comparison to methanol induction.

AOX1 promoter [3] = assay: intracellular hPINX1 protein production, Western blot analysis; details: SNP 800 nM; intracellular production in P. pastoris
Method: In another study performed under scope of the invention, human PINX1 (hPINX1) protein under AOX1 promoter control by adding SNP in 800 nM concentration was produced intracellularly with P. pastoris. According to Western blot analysis result of this study, it was seen that SNP induced hPINX1 protein production.

sodium nitroprusside
extracellular protein production (prepromelittin of Apis mellifera) (AOX1 promoter [1]): extracellular protein production was achieved | heterologous gene expression level with SNP induction compared to only methanol induction (AOX1 promoter [2]; in the presence of glycerol (1%), p>0.05): no significant difference | heterologous gene expression level with SNP induction compared to only methanol induction (AOX1 promoter [2]; in the presence of sorbitol (1%)): higher gene expression level | hPINX1 protein production under AOX1 promoter control (Western blot) (AOX1 promoter [3]): induced hPINX1 protein production

Some compounds may have been tested in ways that are not shown here.
